Target: α7 nAChR (Homo sapiens, UniProt P36544)

Protein sequences, listed by entry. Tags and fused reporters are not part of them. Residues count along the entry.
UniProt P36544, 23-502: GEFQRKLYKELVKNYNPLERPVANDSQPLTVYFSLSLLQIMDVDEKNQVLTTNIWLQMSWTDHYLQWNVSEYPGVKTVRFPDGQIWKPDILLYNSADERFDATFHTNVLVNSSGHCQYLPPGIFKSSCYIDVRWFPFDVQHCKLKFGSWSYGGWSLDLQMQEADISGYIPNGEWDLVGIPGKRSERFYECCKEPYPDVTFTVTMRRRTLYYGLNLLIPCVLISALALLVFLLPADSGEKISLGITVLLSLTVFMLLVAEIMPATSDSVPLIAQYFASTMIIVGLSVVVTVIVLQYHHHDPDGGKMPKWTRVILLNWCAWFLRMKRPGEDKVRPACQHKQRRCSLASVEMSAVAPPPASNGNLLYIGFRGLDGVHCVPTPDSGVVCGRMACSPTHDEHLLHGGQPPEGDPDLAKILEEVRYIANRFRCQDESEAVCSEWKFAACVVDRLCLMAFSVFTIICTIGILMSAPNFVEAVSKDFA

C[N+]12CCC(CC1)CC2.[I-] [MQN, 1-methyl-1-azoniabicyclo[2.2.2]octane iodide]
selectivity classification: α7-selective agonists

From article PMC2999882 (Molecular pharmacology, 2008)
